# Protocol: The solubility of the organic carboxylic acid strontium salts, were measured in water. The solubility of these salts was also measured as a function of temperature. This was performed by incubating the saturated solutions of the salts in temperature controlled incubators.
# The buffered solutions were immersed into a bath of water temperature controlled at either room temperature (22-24° C.), at 30° C. or at 40° C. […] In order to eliminate any reminiscent strontium chloride influence on the determination of solubility, all the precipitate was collected at the bottom of the test tubes and the solutions above the precipitate were carefully removed and substituted by fresh solutions. […] From these solutions, the dissolved proportions of the strontium salt were collected in volumes of 1 mL at the specified temperature. […]
# Two methods were used for quantification of strontium in solutions: Flame Atomic Absorption Spectrometry (F-AAS), and the more sensitive inductively-coupled-plasmamass spectrometry (ICP-MS).
# The solubilities were investigated as described above, and strontium content in the saturated solutions determined as described here below.
# Some of the very soluble strontium salts were further diluted before analysis by F-AAS. […] Strontium was measured at a slit with of 0.2 nm, the wavelength was 460.8 nm operated at an energy of 58 and a current of 8 mA. […]
substance,measurement,value
strontium alpha-ketoglutarate [α-ketogluterate],"SOLUBILITY AT 40° C., pH 7.5",3809 mg/L

# Reference: US20130071496A1, “CONTROLLED RELEASE COMPOSITION CONTAINING A STRONTIUM SALT” (Osteologix A/S, priority 2003, published 2013)
